# Laboratory results as given in ChEMBL document CHEMBL5029200, “Imidazoline- and Benzamidine-Based Trypanosome Alternative Oxidase Inhibitors: Synthesis and Structure-Activity Relationship Studies” (ACS Med Chem Lett, 2022).
# System: HEK293
# Assay: Cytotoxicity against HEK293 cells
# Format: ADME, cell-based
# Details: human
compound,measurement,value
O=[As]c1ccccc1 (stereo unspecified),CC50,900 nM
